Measurements published in US10807944B2, “HDAC inhibitor compounds and methods of treatment” (priority 2014, dated 2020).

Sequences of proteins named here, by UniProt entry; tags and fusion partners are left off. A change or cut given only in a name is not applied to a line headed by its entry.
UniProt Q969S8: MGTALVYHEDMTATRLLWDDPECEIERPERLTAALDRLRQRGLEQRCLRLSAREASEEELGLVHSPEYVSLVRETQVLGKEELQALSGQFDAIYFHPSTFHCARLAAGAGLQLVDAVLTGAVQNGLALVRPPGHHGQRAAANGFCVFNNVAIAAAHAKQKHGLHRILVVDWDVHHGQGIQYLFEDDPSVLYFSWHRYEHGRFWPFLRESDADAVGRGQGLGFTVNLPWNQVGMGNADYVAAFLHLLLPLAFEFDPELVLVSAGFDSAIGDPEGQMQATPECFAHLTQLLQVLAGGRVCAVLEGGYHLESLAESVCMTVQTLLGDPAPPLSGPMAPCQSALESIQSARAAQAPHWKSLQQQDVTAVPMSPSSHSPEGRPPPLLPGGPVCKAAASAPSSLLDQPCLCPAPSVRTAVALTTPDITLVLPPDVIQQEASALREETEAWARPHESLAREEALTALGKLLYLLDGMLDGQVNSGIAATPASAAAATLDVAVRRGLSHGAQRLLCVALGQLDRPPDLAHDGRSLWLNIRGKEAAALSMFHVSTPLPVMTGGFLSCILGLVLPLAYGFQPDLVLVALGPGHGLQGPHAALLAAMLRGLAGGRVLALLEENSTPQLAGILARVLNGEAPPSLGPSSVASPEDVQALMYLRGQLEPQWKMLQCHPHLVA

Biological target: HDAC10 (Homo sapiens (Human), UniProt Q969S8)
Experiment: HDAC10 in vitro inhibition, dose response
Type: biochemical
Settings: Table 1; read-out: Inhibitory Potency (IC50) HDAC 10

SMILES: O=C(CCCCCCC(=O)Nc1ccccc1)NO
- IC50: 30 nM
